BindingDB's records for patent US11485745 (Valo Health, 2022)
pIC50: −log10 of the molar value.

Protein sequences, listed by entry. Tags and fused reporters are not part of them. Lines headed by an entry give the natural chain unless they say otherwise; changes in a name come on top.
UniProt P43490: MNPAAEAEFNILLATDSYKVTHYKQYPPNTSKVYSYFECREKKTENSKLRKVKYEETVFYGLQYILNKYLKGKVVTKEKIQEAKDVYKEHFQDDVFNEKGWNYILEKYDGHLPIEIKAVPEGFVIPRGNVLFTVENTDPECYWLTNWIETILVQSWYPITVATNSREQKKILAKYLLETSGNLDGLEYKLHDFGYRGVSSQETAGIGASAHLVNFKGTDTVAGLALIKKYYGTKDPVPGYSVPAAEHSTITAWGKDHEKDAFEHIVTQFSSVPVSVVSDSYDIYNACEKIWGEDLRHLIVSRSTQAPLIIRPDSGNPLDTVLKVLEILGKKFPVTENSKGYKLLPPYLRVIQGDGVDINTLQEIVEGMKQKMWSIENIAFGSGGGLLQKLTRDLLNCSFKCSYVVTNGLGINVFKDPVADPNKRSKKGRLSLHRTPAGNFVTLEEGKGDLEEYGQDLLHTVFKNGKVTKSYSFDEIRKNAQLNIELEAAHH

Molecular target: Nicotinamide phosphoribosyltransferase (Homo sapiens, UniProt P43490)
Experiment: Biochemical Inhibition Assay

pIC50: 7.18
SMILES: O=C(NCC1CC12CCN(C(=O)c1cc(C3CC3)c[nH]1)CC2)c1cc2ccncc2o1 (stereo unspecified) [US11485745, Example 123]
